{"source": "PubChem BioAssay AID1865", "about": "(National Center for Advancing Translational Sciences (NCATS), 2009)", "note": "Only a part is listed here, and it is no random draw. Calls of active or inactive are those of the source. The call rests on the fitted dose curve; in most records, active means well fitted activation curve with a large enough effect; inconclusive means small, poorly fitted or top-dose-only effect; inactive means flat fitted curve, though single readings scatter."}
{"assay": "Quantitative High-Throughput Screen for Regulators of Epigenetic Control; further: % of control where 0% means no effect; nearly all actives have a fitted effect of over 60% in size", "details": "murine LDR cells, GFP reporter derepression, 30 h; at 53.9 µM (top of the series)", "source_text": "NIH Molecular Libraries Screening Centers Network [MLPCN] NIH Chemical Genomics Center [NCGC] MLSCN Grant: 1 X01 MH079860-01 Assay Provider: Elisabeth D. Martinez, University of Texas SW Medical Center NCGC Assay Overview: The Locus Derepression (LDR) assay detects the derepression or induction of a GFP reporter that is stably integrated in a genomic region of murine cells that is presumably silenced. Transcription of the GFP reporter is controlled by a CMV promoter, which normally is constitutively active. However, this cell line, termed LDR, was selected for lack of constitutive production of GFP. GFP production can be induced by incubating the cells with histone deacetylase or DNA methyltransferase inhibitors (Martinez et al., 2006). Compounds that derepress or induce this reporter locus are identified by enumerating GFP positive cells using a laser-scanning microplate cytometer (Auld et al., 2006). […]\nNCGC Assay Protocol Summary: Three hundred LDR cells in 5 uL per well were dispensed into black, clear-bottom 1536-well plates. […] Fluorescent protein-based cellular assays analyzed by laser-scanning microplate cytometry in 1536-well plate format. […] A quantitative high-throughput screen identifies potential epigenetic modulators of gene expression. […] High-content fluorescence-based screening for epigenetic modulators. […]"}
{"smiles": "CN(CCCl)CCCl", "GFP activation": "inactive: 11.7%"}
